Values quoted from earlier work in PMC4650712, “Conversion of cell-survival activity of Akt into apoptotic death of cancer cells by two mutations on the BIM BH3 domain” (Cell Death & Disease, 2015).

The chains behind the UniProt entries cited, without tags or fusion partners.
UniProt Q07817, whole entry: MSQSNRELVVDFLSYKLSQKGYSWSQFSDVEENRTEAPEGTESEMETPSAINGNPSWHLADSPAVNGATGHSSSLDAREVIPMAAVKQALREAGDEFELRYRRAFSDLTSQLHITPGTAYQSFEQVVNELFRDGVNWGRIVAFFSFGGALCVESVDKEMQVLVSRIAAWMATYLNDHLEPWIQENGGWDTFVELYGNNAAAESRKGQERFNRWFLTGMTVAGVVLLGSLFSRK
UniProt P10415, whole entry: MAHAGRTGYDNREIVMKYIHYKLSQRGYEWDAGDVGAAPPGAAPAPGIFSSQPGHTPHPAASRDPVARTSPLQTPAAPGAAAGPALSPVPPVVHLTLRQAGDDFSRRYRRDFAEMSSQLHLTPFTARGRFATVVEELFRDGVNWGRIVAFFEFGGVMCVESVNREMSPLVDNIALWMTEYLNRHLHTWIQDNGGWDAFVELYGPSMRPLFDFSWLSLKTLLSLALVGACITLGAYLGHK

Experiments:
BCL-XL (Homo sapiens) = BCL-XL (Homo sapiens) (UniProt Q07817)
BCL-2 (Homo sapiens) = BCL-2 (Homo sapiens) (UniProt P10415)

BIM BH3 36-mer peptide BH3 (from UniProt O43521)
Kd (BCL-XL (Homo sapiens)): 7 nM
Kd (BCL-2 (Homo sapiens)): 7 nM
